pIC50: −log10 of the molar value.
biological target: JAK1 (Homo sapiens (Human), UniProt P23458); assay: Jak biochemical HTRF assay, JAK1; conditions: recombinant GST-tagged catalytic domain
Procedure: (§1) Jak Biochemical HTRF Assay Protocol
(§2) The ability of compounds to inhibit the activity of JAK1, JAK2, JAK3, and Tyk2 was measured using a recombinant purified GST-tagged catalytic domain for each enzyme (Invitrogen JAK1 #M4290, JAK2 #M4290, JAK3 #M4290, Tyk2 #M4290) in an HTRF format biochemical assay. […] The basic assay protocol is as follows: First, 250 nL of diluted compounds in DMSO were dispensed into the wells of a dry 384-well Black plate (Greiner #781076) using a Labcyte Echo 555 acoustic dispenser. Subsequent reagent additions employed an Agilent Bravo. […] After equilibration, 2 μL of 10×ATP in 1× assay buffer was added to initiate the kinase reaction and the plates were shaken and then incubated at room temperature for 120 minutes. […] Plates were shaken and centrifuged and then incubated 60 minutes at room temperature and then read on a Perkin Elmer Envision (λex=337 nm, λem=665 and 615 nm, TRF delay time=20 μs). HTRF signal=10,000*665 nm reading/615 nm reading. After normalization to untreated controls, the percent inhibition of the HTRF signal at each compound concentration was calculated. The plot of percent inhibition versus the log of compound concentration was fit with a 4-parameter dose response equation to calculate IC50 values.
(§3) Final Reaction Conditions were:
(§4) Examples of the instant invention were evaluated in JAK1 and JAK2 in vitro binding assays.

Chains of the proteins cited; added tags and fusions are not shown. Residues count along the entry.
UniProt P23458, 875-1153: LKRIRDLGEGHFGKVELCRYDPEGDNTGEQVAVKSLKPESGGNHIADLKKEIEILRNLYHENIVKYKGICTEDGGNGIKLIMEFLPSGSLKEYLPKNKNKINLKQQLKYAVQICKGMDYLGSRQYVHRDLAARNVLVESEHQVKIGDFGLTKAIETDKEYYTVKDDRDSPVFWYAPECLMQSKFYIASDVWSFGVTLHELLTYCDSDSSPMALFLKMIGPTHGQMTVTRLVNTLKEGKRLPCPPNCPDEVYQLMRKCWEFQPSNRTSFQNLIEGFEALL
UniProt O60674, 849-1124: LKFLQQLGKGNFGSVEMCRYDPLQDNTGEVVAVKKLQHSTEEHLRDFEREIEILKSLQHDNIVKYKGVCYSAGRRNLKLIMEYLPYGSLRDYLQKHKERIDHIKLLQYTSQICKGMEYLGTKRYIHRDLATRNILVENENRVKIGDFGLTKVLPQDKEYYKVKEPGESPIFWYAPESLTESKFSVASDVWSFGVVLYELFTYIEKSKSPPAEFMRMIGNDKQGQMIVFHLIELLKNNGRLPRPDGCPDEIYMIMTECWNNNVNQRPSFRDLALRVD

pIC50 | SMILES
9.85 | N#C[C@H]1CCCC[C@@H]1n1nc(Nc2ccc(C(O)C(F)F)cc2)c2c(=O)[nH]ccc21 (mixture of isomers) [Example 10-1, Racemic-(1S,2S)-2-(3-((4-(2,2-difluoro-1-hydroxyethyl)phenyl)amino)-4-oxo-4,5-dihydro-1H-pyrazolo[4,3-c]pyridin-1-yl)cyclohexanecarbonitrile]
9.40 | CC(C)S(=N)(=O)c1ccc(Nc2nn(C3CCC[C@@H]3C#N)c3cc[nH]c(=O)c23)cc1 (single isomer, unassigned) [Example 3-108, (1S,2S)-2-[3-({4-[(S or R)-S-(1-methylethyl)sulfonimidoyl]phenyl}amino)-4-oxo-4,5-dihydro-yl]cyclopentanecarbonitrile]
9.66 | CC(C)S(=N)(=O)c1ccc(Nc2nn(C3CCC[C@@H]3C#N)c3cc[nH]c(=O)c23)cc1 (single isomer, unassigned) [Example 3-109, (1S,2S)-2-[3-({4-[(S or R)-S-(1-methylethyl)sulfonimidoyl]phenyl}amino)-4-oxo-4,5-dihydro-1H-pyrazolo[4,3-c]pyridin-1-yl]cyclopentanecarbonitrile]
9.66 | CC(C)NC(c1ccc(Nc2nn([C@H]3CCC[C@@H]3C#N)c3cc[nH]c(=O)c23)cc1)C(F)(F)F (single isomer, unassigned) [Example 3-115, (1S,2S)-2-{4-oxo-3-[(4-{(1R or 1S)-2,2,2-trifluoro-1-[(1-methylethyl)amino]ethyl}phenyl)amino]-4,5-dihydro-1H-pyrazolo[4,3-c]pyridin-1-yl}cyclopentanecarbonitrile]
9.74 | CC(C)NC(c1ccc(Nc2nn([C@H]3CCC[C@@H]3C#N)c3cc[nH]c(=O)c23)cc1)C(F)(F)F (single isomer, unassigned) [Example 3-116, (1S,2S)-2-{4-oxo-3-[(4-{(1S or 1R)-2,2,2-trifluoro-1-[(1-methylethyl)amino]ethyl}phenyl)amino]-4,5-dihydro-1H-pyrazolo[4,3-c]pyridin-1-yl}cyclopentanecarbonitrile]
9.77 | CC(O)(c1ccc(Nc2nn([C@H]3CCC[C@@H]3C#N)c3cc[nH]c(=O)c23)cc1)C(F)(F)F (single isomer, unassigned) [Example 3-138, (1S,2S)-2-[4-oxo-3-({4-[(1R or 1S)-2,2,2-trifluoro-1-hydroxy-1-methylethyl]phenyl}amino)-4,5-dihydro-1H-pyrazolo[4,3-c]pyridin-1-yl]cyclopentanecarbonitrile]
10.03 | CC(O)(c1ccc(Nc2nn([C@H]3CCC[C@@H]3C#N)c3cc[nH]c(=O)c23)cc1)C(F)(F)F (single isomer, unassigned) [Example 3-139, (1S,2S)-2-[4-oxo-3-({4-[(1R or 1S)-2,2,2-trifluoro-1-hydroxy-1-methylethyl]phenyl}amino)-4,5-dihydro-1H-pyrazolo[4,3-c]pyridin-1-yl]cyclopentanecarbonitrile]
9.36 | N#C[C@H]1CCCC[C@@H]1n1nc(Nc2ccc3c(c2)C(O)C2(CCCCC2)S3(=O)=O)c2c(=O)[nH]ccc21 (single isomer, unassigned) [Example 3-174, (1S,2S)-2-(3-{[(3S or 3R)-3-hydroxy-1,1-dioxido-3H-spiro[1-benzothiophene-2,1′-cyclohexan]-5-yl]amino}-4-oxo-4,5-dihydro-1H-pyrazolo[4,3-c]pyridin-1-yl)cyclohexanecarbonitrile]
10.00 | N#C[C@H]1CCCC[C@@H]1n1nc(Nc2ccc3c(c2)C(O)C2(CCCCC2)S3(=O)=O)c2c(=O)[nH]ccc21 (single isomer, unassigned) [Example 3-175, (1S,2S)-2-(3-{[(3R or 3S)-3-hydroxy-1,1-dioxido-3H-spiro[1-benzothiophene-2,1′-cyclohexan]-5-yl]amino}-4-oxo-4,5-dihydro-1H-pyrazolo[4,3-c]pyridin-1-yl)cyclohexanecarbonitrile]

biological target: JAK2 (Homo sapiens (Human), UniProt O60674); assay: Jak biochemical HTRF assay, JAK2; conditions: recombinant GST-tagged catalytic domain
Procedure: as §1, §2, §3, §4

pIC50 | SMILES
9.68 | N#C[C@H]1CCCC[C@@H]1n1nc(Nc2ccc(C3(C(F)(F)F)CCCN3)cc2)c2c(=O)[nH]ccc21 (single isomer, unassigned) [Example 15-61, (1S,2S)-2-[4-oxo-3-({4-[(2R or 2S)-2-(trifluoromethyl)pyrrolidin-2-yl]phenyl}amino)-4,5-dihydro-1H-pyrazolo[4,3-c]pyridin-1-yl]cyclohexanecarbonitrile]
9.47 | N#C[C@H]1CCCC[C@@H]1n1nc(Nc2ccc(C3(C(F)(F)F)CCCN3)cc2)c2c(=O)[nH]ccc21 (single isomer, unassigned) [Example 15-62, (1S,2S)-2-[4-oxo-3-({4-[(2S or 2R)-2-(trifluoromethyl)pyrrolidin-2-yl]phenyl}amino)-4,5-dihydro-1H-pyrazolo[4,3-c]pyridin-1-yl]cyclohexanecarbonitrile]
9.47 | N#C[C@H]1CCCCC[C@@H]1n1nc(Nc2ccc(C3(C(F)(F)F)CCCCN3)cc2)c2c(=O)[nH]ccc21 (single isomer, unassigned) [Example 15-69, (1S,2S or 1R,2R)-2-[4-oxo-3-({4-[(2S or 2R)-2-(trifluoromethyl)piperidin-2-yl]phenyl}amino)-4,5-dihydro-1H-pyrazolo[4,3-c]pyridin-1-yl]cycloheptanecarbonitrile]
9.40 | N#C[C@H]1CCCCC[C@@H]1n1nc(Nc2ccc(C3(C(F)(F)F)CCCCN3)cc2)c2c(=O)[nH]ccc21 (single isomer, unassigned) [Example 15-70, (1S,2S or 1R,2R)-2-[4-oxo-3-({4-[(2R or 2S)-2-(trifluoromethyl)piperidin-2-yl]phenyl}amino)-4,5-dihydro-1H-pyrazolo[4,3-c]pyridin-1-yl]cycloheptanecarbonitrile]
10.07 | N#C[C@H]1CCC[C@@H]1n1nc(Nc2ccc(C3(C(F)(F)F)CCCCN3)cc2)c2c(=O)[nH]ccc21 (single isomer, unassigned) [Example 15-71, (1S,2S)-2-[4-oxo-3-({4-[(2S or 2R)-2-(trifluoromethyl)piperidin-2-yl]phenyl}amino)-4,5-dihydro-1H-pyrazolo[4,3-c]pyridin-1-yl]cyclopentanecarbonitrile]
10.05 | N#C[C@H]1CCC[C@@H]1n1nc(Nc2ccc(C3(C(F)(F)F)CCCCN3)cc2)c2c(=O)[nH]ccc21 (single isomer, unassigned) [Example 15-72, (1S,2S)-2-[4-oxo-3-({4-[(2R or 2S)-2-(trifluoromethyl)piperidin-2-yl]phenyl}amino)-4,5-dihydro-1H-pyrazolo[4,3-c]pyridin-1-yl]cyclopentanecarbonitrile]
8.48 | Cc1cc(Nc2nn([C@@H]3CC(F)(F)C[C@@H]3C#N)c3cc[nH]c(=O)c23)ccc1C(=O)N1CCCC1 (single isomer, unassigned) [Example 22-5, (1S,2R or 1R,2S)-4,4-difluoro-2-(3-{[3-methyl-4-(pyrrolidin-1-ylcarbonyl)phenyl]amino}-4-oxo-4,5-dihydro-1H-pyrazolo[4,3-c]pyridin-1-yl)cyclopentanecarbonitrile]
9.16 | CC(C)S(=O)(=O)c1ccc(Nc2nn([C@H]3CCCC[C@@H]3C#N)c3cc[nH]c(=O)c23)cc1 [Example 3-141, (1S,2S)-2-[3-({4-[(1-methylethyl)sulfonyl]phenyl}amino)-4-oxo-4,5-dihydro-1H-pyrazolo[4,3-c]pyridin-1-yl]cyclohexanecarbonitrile]
8.57 | N#C[C@H]1CCCC[C@@H]1n1nc(Nc2ccc([C@]3(O)CC[C@H](C(=O)O)CC3)cc2)c2c(=O)[nH]ccc21 [Example 17-2]
